Assays:
[1] = tested on: proteolytic enzymes in the gastrointestinal track
[2] = drug substance, lyophilized material
[3] = enteric-coated tablets, buffer at pH 6.8, FIG. 3
grafts = conditions: cited from earlier work
[4] = capsule formulations; Maillard reaction under accelerated storage conditions, yellowing of the granulate

## L-glutamic acid polymer with L-alanine, L-lysine and L-tyrosine, acetate (salt) [Copolymer 1]
[1]
  degradation by proteolytic enzymes: easily degraded
[2]
  solubility: only slightly soluble
[3]
  dissolution profiles of 5 mg and 50 mg tablets compared: matching
grafts
  cytotoxic activity toward grafts: completely abolished
[4]
  compatibility with lactose monohydrate filler: long-term incompatibility

Source: patent publication US7022663B2 (Yeda Research and Development Co., Ltd., priority 2000, dated 2006)
